Read-outs that look alike come from different tables or passages of the source.
System: human platelets
Experiment: U46619-induced platelet aggregation in vitro
Type: cell-based
Protocol: Platelets are prominent components of the thrombi.
Compounds were incubated at 37° C. for 2 min before adding U46619, an aggregating agent, TxA2 analog. Aggregation was followed for 5 min and the maximal amplitude (cm) was measured. DMSO (0.05%) was used as vehicle. Compounds were tested at concentrations ranging from 50 to 200 μM.

CC[C@H](C)C(=O)O[C@H]1C[C@H](O)C=C2C=C[C@H](C)[C@H](CC[C@@H](O)C[C@@H](O)CC(=O)O)[C@H]21 [Pravastatin, pravastatin, reference compound]
IC50 (read-out: Platelet aggregation (GFP) IC50): > 200 µM | IC50 (read-out: Platelet aggregation (PRP) IC50): > 200 µM
